Assay results reported in US10183038B2, “Method for preventing and treating renal disease” (L & F Research LLC, priority 2010, dated 2019).

Tested on: patients with recurrent FSGS and biopsy-proven B7-1 podocyte expression
Assay: Case reports: abatacept and plasmapheresis for early post-transplant recurrent proteinuria
Format: in vivo, human
[1] = Case 2, 3 months post-transplant

abatacept
urinary protein to creatinine ratio, course (Case 1, 1 dose Abatacept (500 mg) with plasmapheresis from POD 3, after peaking at 4.6): decreased progressively | creatinine levels (Case 1, 1.5 years after cessation of plasmapheresis and abatacept treatment): 1.3 mg/dL | random urinary protein to creatinine ratio (Case 1, POD 8): 0.8 mg/mg | serum albumin and total protein levels (Case 1, after Abatacept and plasmapheresis): increased to normal values | serum creatinine level [1]: 0.7 mg/dL | urine protein/creatinine ratio [1]: 1.3 | urine protein levels, course (Case 2, single dose of abatacept (500 mg) on POD 9, with plasmapheresis): marked decreased
